The values below are quoted from earlier work in US8852881B2, “Multiwell assay apparatus and method for determining biological activity of compounds” (Vertex Pharmaceuticals, Inc., priority 2004, dated 2014).

Amino acid sequences for entries named in this document (tags omitted). A change or cut given only in a name is not applied to a line headed by its entry. Chains listed by the source or under a name are the forms on record and can include a tag or linker.
UniProt P13569, with tags, fused parts or gaps DEL508-508: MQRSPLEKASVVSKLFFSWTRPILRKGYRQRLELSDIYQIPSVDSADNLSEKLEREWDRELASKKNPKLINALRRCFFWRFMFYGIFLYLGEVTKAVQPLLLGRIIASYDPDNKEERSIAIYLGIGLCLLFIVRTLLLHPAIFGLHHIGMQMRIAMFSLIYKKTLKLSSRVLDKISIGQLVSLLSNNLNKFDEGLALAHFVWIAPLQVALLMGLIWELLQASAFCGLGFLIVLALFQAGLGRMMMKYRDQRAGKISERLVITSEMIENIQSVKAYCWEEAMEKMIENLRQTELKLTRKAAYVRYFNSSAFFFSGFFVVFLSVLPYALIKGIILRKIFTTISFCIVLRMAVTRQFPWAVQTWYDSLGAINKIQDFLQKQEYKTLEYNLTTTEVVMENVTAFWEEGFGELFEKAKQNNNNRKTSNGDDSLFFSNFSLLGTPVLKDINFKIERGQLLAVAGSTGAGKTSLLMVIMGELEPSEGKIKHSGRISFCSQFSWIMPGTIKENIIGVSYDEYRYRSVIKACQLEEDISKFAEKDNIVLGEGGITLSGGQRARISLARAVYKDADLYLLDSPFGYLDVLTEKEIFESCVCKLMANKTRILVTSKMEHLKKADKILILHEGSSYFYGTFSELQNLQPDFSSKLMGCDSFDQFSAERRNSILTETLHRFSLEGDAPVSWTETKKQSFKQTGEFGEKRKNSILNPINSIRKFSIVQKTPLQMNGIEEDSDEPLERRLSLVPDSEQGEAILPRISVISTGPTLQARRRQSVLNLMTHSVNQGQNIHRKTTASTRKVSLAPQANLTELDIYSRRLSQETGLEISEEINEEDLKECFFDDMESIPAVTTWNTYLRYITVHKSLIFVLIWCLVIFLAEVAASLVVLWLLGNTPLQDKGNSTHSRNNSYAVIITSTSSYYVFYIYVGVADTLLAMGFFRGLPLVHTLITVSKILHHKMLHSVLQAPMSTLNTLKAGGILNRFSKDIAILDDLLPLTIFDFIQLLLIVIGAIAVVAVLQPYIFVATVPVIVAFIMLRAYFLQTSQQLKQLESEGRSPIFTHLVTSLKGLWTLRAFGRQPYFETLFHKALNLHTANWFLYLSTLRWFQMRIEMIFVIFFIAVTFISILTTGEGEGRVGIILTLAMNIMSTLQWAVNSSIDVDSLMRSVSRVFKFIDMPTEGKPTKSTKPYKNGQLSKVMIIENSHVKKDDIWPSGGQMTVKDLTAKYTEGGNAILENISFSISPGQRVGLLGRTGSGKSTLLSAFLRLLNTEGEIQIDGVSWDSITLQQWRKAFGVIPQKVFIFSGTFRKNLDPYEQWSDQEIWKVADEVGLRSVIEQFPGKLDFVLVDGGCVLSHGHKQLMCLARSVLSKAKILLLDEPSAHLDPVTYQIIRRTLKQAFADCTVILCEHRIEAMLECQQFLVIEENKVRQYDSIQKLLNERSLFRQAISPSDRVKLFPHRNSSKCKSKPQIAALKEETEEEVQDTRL

The series addresses T1, ΔF508-CFTR (Homo sapiens, UniProt P13569, DEL508-508).
T1 construct: expressed in transfected cells; host or cells: Fischer Rat Thyroid (FRT) epithelial cell line
To be noted: published value; n=47; read-out: EC-50, published value; cited from earlier work.

For `O=c1c(-c2ccc(O)cc2)coc2cc(O)cc(O)c12` [genistein], the EC50 was 14.8 ± 3.8 µM.
